Data published in patent publication US20060217418A1, “Substituted alkyl amido piperidines” (priority 2001, published 2006).
pKi: −log10 of the molar value.

Sequences of proteins named here, by UniProt entry; tags and fusion partners are left off. A change or cut given only in a name is not applied to a line headed by its entry.
UniProt P97639: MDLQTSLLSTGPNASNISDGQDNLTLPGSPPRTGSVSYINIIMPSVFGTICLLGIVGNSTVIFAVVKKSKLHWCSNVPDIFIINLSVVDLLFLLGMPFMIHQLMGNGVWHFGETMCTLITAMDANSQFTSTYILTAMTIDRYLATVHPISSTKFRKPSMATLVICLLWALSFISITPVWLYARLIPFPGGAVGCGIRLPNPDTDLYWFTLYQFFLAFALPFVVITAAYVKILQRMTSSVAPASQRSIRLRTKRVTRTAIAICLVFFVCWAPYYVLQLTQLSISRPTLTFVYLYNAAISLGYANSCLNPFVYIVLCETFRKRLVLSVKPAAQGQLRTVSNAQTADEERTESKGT

Each molecule was assayed against rat MCH1 receptor (Rattus norvegicus, UniProt P97639) (assay: Radioligand binding assay at cloned rat MCH1 receptor ([3H]Compound A)). Conditions: read-out: Ki(MCH-1); cloned rat MCH1, Peakr293 cell membranes, 0.08 nM [3H]Compound A, 25° C., 90 minutes.
In the case of Cc1ccc(C(O)(C(=O)NCCCN2CCC(c3cc(NC(=O)C(C)C)c(F)cc3F)CC2)c2ccc(C)cc2)cc1, the pKi was 8.27.
With CC(C)C(=O)Nc1cncc(C2CCN(CCCNC(=O)C(O)(c3ccccc3)c3ccccc3)CC2)c1 the pKi was 7.46.
Cc1ccc(C(O)(C(=O)NCCCN2CCC(c3cncc(NC(=O)C(C)C)c3)CC2)c2ccc(C)cc2)cc1 showed a pKi of 7.80.
Work on CC(C)C(=O)Nc1cncc(C2CCN(CCCNC(=O)C(O)(c3ccc(F)cc3)c3ccc(F)cc3)CC2)c1 yielded a pKi of 8.28.
Work on Cc1ccc(C(O)(C(=O)NCCCN2CCC(c3cc(NC(=O)C(C)C)ccc3C)CC2)c2ccc(C)cc2)cc1 yielded a pKi of 8.96.
For Cc1ccc(NC(=O)C(C)C)cc1C1CCN(CCCNC(=O)C(O)(c2ccccc2)c2ccccc2)CC1, the pKi was 9.30.
CC(C)C(=O)Nc1cc(C2CCN(CCCNC(=O)C(O)(c3ccccc3)c3ccccc3)CC2)c(F)cc1F was tested, and the pKi was 8.17.
Work on Cc1ccc(NC(=O)C(C)C)cc1C1CCN(CCCNC(=O)C(O)(c2ccc(F)cc2)c2ccc(F)cc2)CC1 yielded a pKi of 9.15.
Molecule CC(C)C(=O)Nc1cc(C2CCN(CCCNC(=O)C(O)(c3ccc(F)cc3)c3ccc(F)cc3)CC2)c(F)cc1F has a pKi of 8.44.
For Cc1ccc(NC(=O)C(C)C)cc1C1CCN(CCCNC(=O)C(O)(c2ccccc2Cl)c2ccccc2Cl)CC1, the pKi was 8.03.
